Earlier results as cited in patent US8377903B2, “Cladribine regimen for treating multiple sclerosis” (Merck Serono SA, priority 2004, dated 2013).

System: Relapsing-Remitting Multiple Sclerosis (RRMS)
Settings: subcutaneously three times per week; cited from earlier work

B1: interferon beta-1a: Rebif® is interferon (IFN)-beta 1a, produced from mammalian cell lines (protein, UniProt P01574 22-187, looked up)
Interferon beta: MSYNLLGFLQRSSNFQCQKLLWQLNGRLEYCLKDRMNFDIPEEIKQLQQFQKEDAALTIYEMLQNIFAIFRQDSSSTGWNETIVENLLANVYHQINHLKTVLEEKLEKEDFTRGKLMSSLHLKRYYGRILHYLKAKEYSHCAWTIVRVEILRNFYFINRLTGYLRN
In the case of B1, the “efficacy in RRMS” value is given as “efficacious”.
